Laboratory results: patent publication US20250255961A1, “METHODS TO STIMULATE IMMUNE RESPONSES TO MUTANT RAS USING NUCLEATED CELLS” (STEMCELL TECHNOLOGIES CANADA INC., priority 2020, published 2025)

System: immune cells extracted from HLA-A*11+ transgenic mice
Assay: IFN-γ ELISPOT of immune cells extracted from vaccinated HLA-A*11 transgenic mice
Type: in vivo
Text: HLA-A*11 transgenic mice were vaccinated twice (prime/boost; 1 mouse) or 3 times (prime/boost/boost; 3 mice) at 2-week intervals with an emulsion of K-Ras G12C^7-16 peptide, hepatitis B virus core peptide (TPPAYRPPNAPIL; SEQ ID NO:18), and incomplete Freund's Adjuvant. One week after the final vaccination, mice were euthanized, where the spleens and draining lymph nodes were extracted, and tissue extracts were dissociated into single cell suspensions.
In a first experiment, cell extracts were then plated on an ELISpot plate, and cultured overnight at 37° C. with medium only (negative control), or with medium containing wild type K-Ras^7-16 peptide, or K-Ras G12C^7-16 peptide. The plate was then developed/quantified according to manufacturer's instructions.
Alternatively, cells extracts were cultured for 6 days at 37° C. in the presence of K-Ras G12C^7-16 peptide. Following this incubation, cells were then plated on an ELISpot plate, and cultured overnight at 37° C. with medium only (negative control), or with medium containing wild type K-Ras^7-16 peptide, or K-Ras G12C^7-16 peptide. The plate was then developed/quantified according to manufacturer's instructions.

VVVGACGVGK [K-Ras G12C^7-16]
numbers of IFN-γ expressing responder cells upon co-culture with K-Ras G12C^7-16 peptide (Example 9, FIG. 9A, mice vaccinated with emulsion of K-Ras G12C^7-16 peptide, hepatitis B virus core peptide and incomplete Freund's Adjuvant, cells cultured overnight with peptide): increased amount; also recorded: significantly increased numbers
numbers of IFN-γ expressing responder cells upon 6 days of co-culture with K-Ras G12C^7-16 peptide (Example 9, FIG. 9B, mice vaccinated with emulsion of K-Ras G12C^7-16, cells cultured 6 days with peptide before ELISpot): significantly increased numbers; also recorded: increased number

“Also recorded” adds a separate entry of the source.
